Test results: PubChem BioAssay AID893 (National Center for Advancing Translational Sciences (NCATS), 2007)
The list shows a part of the results, in another mix than the full data. Records with an inconclusive call do not appear. A call without a number means that no potency is given here. The source made the active and inactive calls. The call rests on the fitted dose curve; in most records, active means well fitted inhibition curve with a large enough effect; inconclusive means small, poorly fitted or top-dose-only effect; inactive means no such curve, though single readings can be large or run the other way.

The compounds below were run against 3-hydroxyacyl-CoA dehydrogenase type-2 (Homo sapiens) (UniProt Q99714) (assay: qHTS Assay for Inhibitors of HSD17B4, hydroxysteroid (17-beta) dehydrogenase 4). Conditions: recombinant HSD17B10, NADH fluorescence kinetic; series mostly up to 57.1 µM.
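Further: the protocol describes HADH2 (HSD17B10) and not the HSD17B4 of the title; nearly all actives have a fitted effect of over 70% in size.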
Potency means the concentration at half of the fitted maximal effect.

Row | SMILES | activity change, negative = inhibition | Potency
1 | COc1ccccc1OP(C)(=O)Nc1ccc(C)cc1 (stereo unspecified) | inactive | –
2 | O=[As]c1ccc(S(=O)(=O)NCCO)cc1 (stereo unspecified) | inactive: 5.46% [at 11.4 µM] | –
3 | CN(C(=O)Cc1ccc(Cl)c(Cl)c1)[C@H]1CCCC[C@@H]1N1CCCC1 | inactive | –
4 | COc1ccccc1OP(C)(=O)Nc1ccc(C)c(C)c1 (stereo unspecified) | inactive | –
5 | C(Cc1nn[nH]n1)c1nn[nH]n1 | inactive: 5.43% [at 11.4 µM] | –
6 | Cc1nc2ccc3ccccc3c2o1.O=[N+]([O-])c1cc([N+](=O)[O-])c(O)c([N+](=O)[O-])c1 | – | active: 20 µM
7 | [N-]=[N+]=NCC(O)CN=[N+]=[N-] (stereo unspecified) | inactive: 7.1% [at 11.4 µM] | –
8 | O=[N+]([O-])c1ccc(C[As](=O)(O)O)cc1 | inactive: 2.79% [at 11.4 µM] | –
9 | CP(=O)(Nc1ccccn1)Oc1ccccc1 (stereo unspecified) | inactive | –
10 | NCC[C@@H](N)CSP(=O)(O)O | inactive: 2.79% [at 11.4 µM] | –
11 | Cc1c2non([O-])c-2c(C)[n+](=O)[n+]1[O-] | inactive | –
12 | OCCSCCO | inactive | –
13 | COc1ccccc1OP(C)(=O)Nc1c(C)n(C)n(-c2ccccc2)c1=O (stereo unspecified) | inactive | –
14 | CCc1nc2c(n1)c1c(non1O)c1c2no[n+]1[O-] | inactive | –
15 | CP(=O)(Oc1ccccc1)N1CCOC1=O (stereo unspecified) | inactive | –
16 | N#[O+].[C-]#N.[C-]#N.[C-]#N.[C-]#N.[C-]#N.[Fe+2].[Na+].[Na+] | – | active: 15.8 µM
17 | O=C(CO)Nc1ccc([As](=O)(O)O)cc1 | inactive: 1.47% [at 11.4 µM] | –
18 | CN(C(=O)Cc1ccccc1)[C@@H]1CC[C@@]2(CCCO2)C[C@H]1N1CCCC1 | inactive | –
19 | C/C1=C2N=C(/C=C3N=C(/C(C)=C4\[N-][C@@](C)([C@H]5N=C1[C@@](C)(CCC(=O)NC[C@H](C)OP(=O)([O-])O[C@@H]1[C@H](O)[C@H](n6cnc7cc(C)c(C)cc76)O[C@@H]1CO)[C@@H]5CC(N)=O)[C@](C)(CC(N)=O)[C@H]4CCC(N)=O)[C@@](C)(CC(N)=O)[C@@H]\3CCC(N)=O)C(C)(C)[C@@H]/2CCC(N)=O.[C-]#N.[Co+3] | inactive | –
20 | CN(C)CCOC(=O)C(O)(c1ccccc1)C1CCCCC1 (stereo unspecified) | inactive | –
21 | [N-]=[N+]=Nc1ccc([As](=O)(O)O)cc1 | inactive: 8.28% [at 11.4 µM] | –

Row | SMILES | activity change, negative = inhibition | Potency
22 | Cc1cc([N+](=O)[O-])cc([N+](=O)[O-])c1O | inactive | –
23 | O=C(OC1CN2CCC1CC2)c1cccc(Cl)c1 (stereo unspecified) | inactive | –
24 | Cc1c([N+](=O)[O-])cccc1[N+](=O)[O-] | inactive | –
25 | Cc1ccc([N+](=O)[O-])c([N+](=O)[O-])c1 | inactive | –
26 | CCOP(C)(=S)SCC(=O)NC(C)(CC)C(=O)O (stereo unspecified) | inactive | –
27 | CCOP(=O)(CC)OCC | inactive | –
28 | c1nnnn1CCn1cnnn1 | inactive | –
29 | O=P(Nc1nccs1)(c1ccccc1)c1ccccc1 | inactive | –
30 | C[C@@H](O)COc1ccc([As](=O)(O)O)cc1N | inactive: 7.02% [at 11.4 µM] | –
31 | [NH4+].[O-][Cl+3]([O-])([O-])[O-] | inactive | –
32 | CCN(CCCl)Cc1ccccc1C | inactive | –
33 | Cc1ccccc1NP(C)(=O)Nc1ccccc1C | inactive | –
34 | NNC(NN)NN.n1nc(-c2nn[nH]n2)n[nH]1 | inactive: -21.9% [at 11.4 µM] | –
35 | CP(=O)(Nc1ccc2c(c1)OCCO2)Oc1ccccc1 (stereo unspecified) | inactive | –
36 | CN1CCC[C@H](OC(=O)C(c2ccccc2)c2ccccc2)C1 | inactive: 7.61% [at 11.4 µM] | –
37 | CP(=O)(Nc1ccccc1F)Oc1ccccc1 (stereo unspecified) | inactive | –
38 | O=P1(Nc2nc3ccc(Cl)cc3s2)COc2ccccc2O1 (stereo unspecified) | inactive | –
39 | Cc1cccc([N+](=O)[O-])c1[N+](=O)[O-] | inactive | –
40 | CCC(C)(OO)OOC(C)(CC)OO (stereo unspecified) | inactive | –
41 | COC(=O)c1cc2c(s1)N=C(c1ccccc1)N(C)P2(=O)N1CCOCC1 (stereo unspecified) | inactive | –
